Measurements published in ChEMBL document CHEMBL4393662, “Structural optimization on a virtual screening hit of smoothened receptor” (Eur J Med Chem, 2019).

By UniProt entry, the sequences of proteins in these tests, tags left out.
UniProt P56726, whole entry: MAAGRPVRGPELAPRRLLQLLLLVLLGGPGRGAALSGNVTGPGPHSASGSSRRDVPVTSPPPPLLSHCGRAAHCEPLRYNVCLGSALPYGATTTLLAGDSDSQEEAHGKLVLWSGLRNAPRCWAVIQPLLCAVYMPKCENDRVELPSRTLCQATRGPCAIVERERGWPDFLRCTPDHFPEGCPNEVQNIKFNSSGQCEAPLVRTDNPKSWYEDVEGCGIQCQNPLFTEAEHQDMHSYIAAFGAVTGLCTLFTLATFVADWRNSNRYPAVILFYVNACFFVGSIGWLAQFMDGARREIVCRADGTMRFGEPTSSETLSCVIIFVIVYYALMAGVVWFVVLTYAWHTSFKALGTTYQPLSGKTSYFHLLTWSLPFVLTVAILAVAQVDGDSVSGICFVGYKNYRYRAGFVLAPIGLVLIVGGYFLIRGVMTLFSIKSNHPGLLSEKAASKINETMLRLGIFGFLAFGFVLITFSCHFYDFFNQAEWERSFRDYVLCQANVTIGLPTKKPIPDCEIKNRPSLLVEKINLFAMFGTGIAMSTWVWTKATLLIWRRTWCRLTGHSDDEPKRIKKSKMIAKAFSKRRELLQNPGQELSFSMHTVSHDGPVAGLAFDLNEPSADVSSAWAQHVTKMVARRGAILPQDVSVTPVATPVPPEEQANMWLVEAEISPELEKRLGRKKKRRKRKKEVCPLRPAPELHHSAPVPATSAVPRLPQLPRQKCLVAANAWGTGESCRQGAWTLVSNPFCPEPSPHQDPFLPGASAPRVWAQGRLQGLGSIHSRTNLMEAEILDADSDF

What was measured:
[1] = target: Protein smoothened (Mus musculus) (UniProt P56726); assay: (§1) Potency index, ratio of IC50 of vismodegib to IC50 of compound for antagonist activity at Smo receptor in mouse NIH/3T3 cells harboring GRE-Luc assessed as inhibition of SAG-induced Hh signaling pathway preincubated with cells followed by SAG addition measured after 48 hrs by luciferase reporter gene assay; type: cell-based
[2] = target: Protein smoothened (Mus musculus) (UniProt P56726); assay: as §1, with “C794-1677” for “vismodegib”; type: cell-based

- Ratio IC50 [1]: 7
- Ratio IC50 [2]: 7
SMILES: Cc1ccc(NCc2ccnn2-c2nnc(N3CCC(C(=O)NC4CCCCC4C)CC3)s2)nc1 (racemic)
